Data reported in article PMC9313104, “Interaction Interface of Aβ42 with Human Na,K-ATPase Studied by MD and ITC and Inhibitor Screening by MD” (Biomedicines, 2022).
Like-named read-outs stand apart in the source and are kept apart here.

Target: duck Na,K-ATPase (Anas platyrhynchos, UniProt Q7ZYV1)
Assay: Isothermal titration calorimetry (MicroCal iTC200), Aβ42 binding to Na,K-ATPase in different states
Conditions: 25 °C; for Ka, affinity constant: 10 mM imidazole, 0.1 mM DTT, measured three to four times, SD did not exceed ±20%; for Kd: calculated as 1/Ka, read-out: Kd, dissociation constant; for ∆G, Gibbs energy: calculated from ∆G = −RTlnKa
Protocol: Briefly, the peptide was dissolved in hexafluoroisopropanol (Fluka), dried, and stored at −80 °C. Before the experiment, the peptide was dissolved in DMSO for 1 h and then diluted in the buffer solution.
Purified preparation of Na,K-ATPase was obtained from duck salt glands as described elsewhere.
Experiments were carried out at 25 °C in four buffers, as described elsewhere: (E2P buffer) 10 mM imidazole, 3 mMTris/Pi, 1 mM EDTA, 3 mM MgCl2, 0.1 mM DTT, pH 7.5; (E1/E2 buffer) 10 mM imidazole, 130 mM NaCl, 20 mM KCl, 3 mM MgCl2, 0.1 mM DTT, pH 7.5; (E1 buffer) 10 mM imidazole, 1 mM EDTA, 3 mM NaCl, 0.1 mM DTT, pH 7.5; (E2 buffer) 10 mM imidazole, 1 mM EDTA, 3 mM KCl, and 0.1 mM DTT, pH 7,5. […] Aliquots (2.6 μL) of ligands were injected into a 0.24 mL cell containing the protein solution to achieve a complete binding isotherm. […] Equivalent amounts of DMSO was added to protein solutions to avoid thermal effects of dissolution.
The effective heat of binding was obtained by subtracting the heat of dilution from the heat of reaction. MicroCal Origin software was used to fit isothermal titration curves. […] The Gibbs energy and enthalpy changes […] were estimated according to the equations: ∆G = −RT lnKa and ∆G = ∆H − T∆S.

[1] = OBN state (26 µM ouabain), pH 7.5

## Aβ42: Aβ42 peptide was synthesized by Biopeptide
E1/E2 state, 130 mM NaCl, 20 mM KCl, 3 mM MgCl2, pH 7.5
  Ka, affinity constant: 770000 M⁻¹
E1/E2 state, pH 7.5
  Kd: 1300 nM
  ∆G, Gibbs energy: -8.02 kcal/mol
E1 state, 1 mM EDTA, 3 mM NaCl, pH 7.5
  Ka, affinity constant: 370000 M⁻¹
E1 state, pH 7.5
  Kd: 2700 nM
  ∆G, Gibbs energy: -7.56 kcal/mol
E2P state, 1 mM EDTA, 3 mM MgCl2, 3 mM Tris/Pi, pH 7.5
  Ka, affinity constant: 510000 M⁻¹
E2P state, pH 7.5
  Kd: 2000 nM
  ∆G, Gibbs energy: -7.78 kcal/mol
E2 state, pH 7.5
  Kd: 2000 nM
  ∆G, Gibbs energy: -7.76 kcal/mol
[1]
  Kd: 1200 nM
  ∆G, Gibbs energy: -8.08 kcal/mol
OBN state (complex with ouabain), 26 µM ouabain, 1 mM EDTA, 3 mM MgCl2, 3 mM Tris/Pi, pH 7.5
  Ka, affinity constant: 830000 M⁻¹
